{"source": "patent US4411908A", "about": "“Imidazoline derivatives as presynaptic α2 -adrenoreceptor antagonists” (priority 1981, dated 1983)", "target": "T1, postsynaptic α-adrenoreceptor (anococcygeus muscle) (Rattus norvegicus, UniProt P43140)", "T1 construct": "compound giving 50% maximum contraction in this instance, of the anococcygeus muscle; from tissue; host or cells: isolated anococcygeus muscle (rat)", "T1 sequence (P43140 1-466)": "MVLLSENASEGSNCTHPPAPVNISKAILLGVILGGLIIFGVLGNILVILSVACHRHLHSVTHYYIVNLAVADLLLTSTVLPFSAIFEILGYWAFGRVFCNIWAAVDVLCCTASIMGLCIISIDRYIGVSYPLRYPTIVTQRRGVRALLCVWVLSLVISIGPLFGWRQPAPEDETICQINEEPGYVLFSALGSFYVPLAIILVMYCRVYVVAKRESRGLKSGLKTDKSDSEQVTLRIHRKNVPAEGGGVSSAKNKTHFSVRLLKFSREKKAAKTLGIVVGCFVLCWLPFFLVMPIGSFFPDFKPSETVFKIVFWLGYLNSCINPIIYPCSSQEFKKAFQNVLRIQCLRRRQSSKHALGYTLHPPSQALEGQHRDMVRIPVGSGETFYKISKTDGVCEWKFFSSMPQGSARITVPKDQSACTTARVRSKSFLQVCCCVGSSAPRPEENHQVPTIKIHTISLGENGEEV", "experiment": "Postsynaptic α-adrenoreceptor agonist activity, isolated anococcygeus muscle", "format": "cell-based"}
{"smiles": "Clc1cccc(Cl)c1N=C1NCCN1", "note": "[Clonidine, reference compound]", "values": [{"measurement": "EC50", "result": 31.6, "unit": "nM"}]}
